Assay results reported in PubChem BioAssay AID2636 (Johns Hopkins Ion Channel Center, 2010).
Only a part is listed here, and it is no random draw. Calls of active or inactive are those of the source.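 The calls were made as follows: active = calcium signal cut by more than 3 SD below the full-agonist control yet still positive, in both repeats and the earlier primary screen; inactive = the rest.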

The chains behind the UniProt entries cited, without tags or fusion partners.
UniProt Q9QUQ5, whole entry: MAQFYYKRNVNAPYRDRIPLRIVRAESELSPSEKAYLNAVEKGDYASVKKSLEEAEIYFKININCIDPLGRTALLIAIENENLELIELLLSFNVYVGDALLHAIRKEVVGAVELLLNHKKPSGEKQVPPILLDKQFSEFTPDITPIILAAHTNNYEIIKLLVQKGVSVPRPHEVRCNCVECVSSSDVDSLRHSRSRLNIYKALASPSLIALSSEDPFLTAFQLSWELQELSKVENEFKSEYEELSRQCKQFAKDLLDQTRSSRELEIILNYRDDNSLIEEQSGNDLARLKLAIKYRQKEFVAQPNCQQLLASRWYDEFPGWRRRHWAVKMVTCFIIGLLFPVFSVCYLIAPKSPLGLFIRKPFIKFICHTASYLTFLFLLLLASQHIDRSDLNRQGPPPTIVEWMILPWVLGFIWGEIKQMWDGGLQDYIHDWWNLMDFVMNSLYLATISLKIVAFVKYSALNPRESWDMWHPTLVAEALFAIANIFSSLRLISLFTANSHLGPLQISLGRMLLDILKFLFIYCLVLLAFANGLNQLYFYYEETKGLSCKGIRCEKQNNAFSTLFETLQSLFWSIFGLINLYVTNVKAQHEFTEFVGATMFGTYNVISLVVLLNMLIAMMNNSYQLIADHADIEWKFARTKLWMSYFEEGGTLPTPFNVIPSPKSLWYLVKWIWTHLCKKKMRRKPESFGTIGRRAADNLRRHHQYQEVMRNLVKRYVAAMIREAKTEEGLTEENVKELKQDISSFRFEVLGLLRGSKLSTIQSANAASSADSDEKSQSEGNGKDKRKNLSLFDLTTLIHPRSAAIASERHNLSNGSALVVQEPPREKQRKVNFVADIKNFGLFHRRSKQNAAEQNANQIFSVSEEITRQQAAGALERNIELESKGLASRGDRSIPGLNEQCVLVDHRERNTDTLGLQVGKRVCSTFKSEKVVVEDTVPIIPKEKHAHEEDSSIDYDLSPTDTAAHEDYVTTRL

target: Short transient receptor potential channel 4 (Mus musculus) (UniProt Q9QUQ5); assay: blockers of DAMGO-evoked TRPC4 calcium flux – cell-based, Fluo4, HEK293 TRPC4beta/mu-opioid, confirmation (AID 2636); details: at 10 µM; hits give high values

Row | Structure (SMILES) | inhibition
1 | CCN(CC)CCCOC(=O)C(O)(c1ccccc1)c1ccccc1 | inactive
2 | CN(C)CCOC(=O)C(O)(c1ccccc1)C1CCCC1 (stereo not drawn) | active: 68%
3 | CN(C)C1(CNC(=O)c2ccc(Cl)c(S(N)(=O)=O)c2)CCCCC1 | inactive
